Test results from patent US6271234A, “1,4-disubstituted piperazines” (Recordati S.A., Chemical and Pharmaceutical Company, priority 1997, dated 2001).

Test system: rhythmic bladder voiding contractions
Experiment: Effects on volume-induced rhythmic bladder voiding contractions in anaesthetized rats
Assay type: in vivo, Female Sprague Dawley rats
Conditions: mean ± S.E.

SMILES: COc1ccccc1N1CCN(CCN(C(=O)C2CCCCC2)c2ccccn2)CC1 [Compound A, N-(2-pyridyl)-N,2-[4-(2-methoxyphenyl)-1-piperazinyl]ethylcyclohexanecarboxamide, reference compound]
- Bladder Quiescence (disappearance time of contractions) (3 μg/kg i.v.): 2.99 ± 0.63 min
- Bladder Quiescence (disappearance time of contractions) (10 μg/kg i.v.): 8.31 ± 1.28 min
- Bladder Quiescence (disappearance time of contractions) (30 μg/kg i.v.): 9.52 ± 0.82 min
- Bladder Quiescence (disappearance time of contractions) (100 μg/kg i.v.): 11.25 ± 1.09 min
- Bladder Quiescence (disappearance time of contractions) (1000 μg/kg i.v.): 6.30 ± 1.42 min
- Bladder Quiescence (disappearance time of contractions) (3000 μg/kg i.v.): 9.25 ± 2.77 min
